# Results from publication PMC9684503 (Communications Biology, 2022).
# Chains of the proteins cited; added tags and fusions are not shown.
# UniProt Q01827, whole entry: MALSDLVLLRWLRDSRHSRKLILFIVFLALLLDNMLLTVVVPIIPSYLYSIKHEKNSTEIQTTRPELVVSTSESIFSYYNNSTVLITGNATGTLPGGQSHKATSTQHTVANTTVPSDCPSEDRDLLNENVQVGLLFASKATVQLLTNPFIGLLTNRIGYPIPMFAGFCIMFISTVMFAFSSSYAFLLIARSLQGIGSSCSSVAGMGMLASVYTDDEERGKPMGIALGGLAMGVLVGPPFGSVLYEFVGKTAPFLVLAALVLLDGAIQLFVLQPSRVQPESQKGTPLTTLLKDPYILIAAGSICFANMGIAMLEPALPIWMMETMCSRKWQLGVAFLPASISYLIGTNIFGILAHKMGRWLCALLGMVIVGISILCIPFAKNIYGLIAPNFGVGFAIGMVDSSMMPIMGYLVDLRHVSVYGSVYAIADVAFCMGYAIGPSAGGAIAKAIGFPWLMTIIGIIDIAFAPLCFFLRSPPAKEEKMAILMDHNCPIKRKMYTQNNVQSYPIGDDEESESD
# Biological target: rat VMAT2 (Rattus norvegicus, UniProt Q01827)
# Settings: Fig. 2a source data, 25 μM compound
smiles,measurement,value
COC(=O)[C@H]1[C@H]2C[C@@H]3c4[nH]c5cc(OC)ccc5c4CCN3C[C@H]2C[C@@H](OC(=O)c2cc(OC)c(OC)c(OC)c2)[C@@H]1OC [Reserpine],"VMAT2-specific FFN206 uptake relative to DMSO (=1), replicate samples",0.08208
